Earlier results on one molecule are cited in patent US20140228218A1, “PARAFFINIC OIL AND CLASS B GIBBERELLIN BIOSYNTHESIS INHIBITOR COMPOSITIONS” (SUNCOR ENERGY INC., priority 2011, published 2014).

The test system of the series is the plant being treated. Particulars: reported by B. Huang, GCM, January 2007.

As for `CC(C)C(O)(c1ccc(OC(F)(F)F)cc1)c1cncnc1` (stereo not drawn) [flurprimidol, α-(1-methylethyl)-α-[4-(trifluoromethoxy)phenyl]-5-pyrimidinemethanol], the “phytotoxicity to the plant being treated (in words)” value is listed as “can cause phytoxicity”.
